Data taken from ChEMBL document CHEMBL1649421, “New drug-like hydroxyphenylnaphthol steroidomimetics as potent and selective 17β-hydroxysteroid dehydrogenase type 1 inhibitors for the treatment of estrogen-dependent diseases” (J Med Chem, 2011).

Experiments:
[1] = target: T1, 17-beta-hydroxysteroid dehydrogenase type 2 (Homo sapiens, UniProt P37059); test: Displacement of [3H]E2 from human placental 17beta-HSD2 after 10 mins by fluid scintillation counting
T1 sequence (P37059 whole entry): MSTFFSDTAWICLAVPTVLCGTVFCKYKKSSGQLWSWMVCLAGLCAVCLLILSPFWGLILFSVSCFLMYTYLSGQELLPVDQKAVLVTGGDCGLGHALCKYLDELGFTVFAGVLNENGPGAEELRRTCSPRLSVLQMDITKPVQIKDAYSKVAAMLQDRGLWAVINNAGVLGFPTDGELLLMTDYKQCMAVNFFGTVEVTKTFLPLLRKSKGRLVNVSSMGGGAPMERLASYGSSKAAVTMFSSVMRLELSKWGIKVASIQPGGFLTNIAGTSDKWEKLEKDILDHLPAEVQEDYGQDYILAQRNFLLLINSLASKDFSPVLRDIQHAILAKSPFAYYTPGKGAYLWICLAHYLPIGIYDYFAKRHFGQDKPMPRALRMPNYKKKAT

[2] = organism: Homo sapiens; test: Selectivity ratio of IC50 for human placental 17beta-HSD2 to IC50 for human placental 17beta-HSD1
[3] = target: T2, 17-beta-hydroxysteroid dehydrogenase type 1 (Homo sapiens, UniProt P14061); test: Displacement of [3H]E1 from human placental 17beta-HSD1 after 10 mins by fluid scintillation counting
T2 sequence (P14061 whole entry): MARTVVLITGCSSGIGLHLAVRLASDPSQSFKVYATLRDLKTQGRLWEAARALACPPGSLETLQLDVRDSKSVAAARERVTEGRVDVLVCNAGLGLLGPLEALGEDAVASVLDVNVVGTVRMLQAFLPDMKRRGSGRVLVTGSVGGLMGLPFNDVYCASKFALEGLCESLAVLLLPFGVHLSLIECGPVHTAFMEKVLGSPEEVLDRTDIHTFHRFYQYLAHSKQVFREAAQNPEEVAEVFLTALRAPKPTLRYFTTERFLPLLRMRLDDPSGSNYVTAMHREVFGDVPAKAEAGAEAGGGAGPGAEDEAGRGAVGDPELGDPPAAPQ

[4] = target: T2, 17-beta-hydroxysteroid dehydrogenase type 1; test: Displacement of [3H]E1 from 17beta-HSD1 in human T47D cells after 10 mins by fluid scintillation counting; format: cell-based

| IC50 [1] | Ratio IC50 [2] | IC50 [3] | IC50 [4] | SMILES |
| --- | --- | --- | --- | --- |
| 3.34 µM | 52 | – | – | Oc1cccc(-c2ccc3c(-c4ccncc4)c(O)ccc3c2)c1 |
| – | 16 | 33 nM | 670 nM | COc1ccc(-c2c(O)ccc3cc(-c4cccc(O)c4)ccc23)cn1 |
| – | 33 | – | – | Nc1cccc(-c2c(O)ccc3cc(-c4cccc(O)c4)ccc23)c1 |
